Data: patent US9580449B2, “Compositions and methods for the production of pyrimidine and pyridine compounds with BTK inhibitory activity” (Merck Patent GmbH, priority 2011, dated 2017)

Sequences of proteins named here, by UniProt entry; tags and fusion partners are left off. A change or cut given only in a name is not applied to a line headed by its entry.
UniProt Q06187: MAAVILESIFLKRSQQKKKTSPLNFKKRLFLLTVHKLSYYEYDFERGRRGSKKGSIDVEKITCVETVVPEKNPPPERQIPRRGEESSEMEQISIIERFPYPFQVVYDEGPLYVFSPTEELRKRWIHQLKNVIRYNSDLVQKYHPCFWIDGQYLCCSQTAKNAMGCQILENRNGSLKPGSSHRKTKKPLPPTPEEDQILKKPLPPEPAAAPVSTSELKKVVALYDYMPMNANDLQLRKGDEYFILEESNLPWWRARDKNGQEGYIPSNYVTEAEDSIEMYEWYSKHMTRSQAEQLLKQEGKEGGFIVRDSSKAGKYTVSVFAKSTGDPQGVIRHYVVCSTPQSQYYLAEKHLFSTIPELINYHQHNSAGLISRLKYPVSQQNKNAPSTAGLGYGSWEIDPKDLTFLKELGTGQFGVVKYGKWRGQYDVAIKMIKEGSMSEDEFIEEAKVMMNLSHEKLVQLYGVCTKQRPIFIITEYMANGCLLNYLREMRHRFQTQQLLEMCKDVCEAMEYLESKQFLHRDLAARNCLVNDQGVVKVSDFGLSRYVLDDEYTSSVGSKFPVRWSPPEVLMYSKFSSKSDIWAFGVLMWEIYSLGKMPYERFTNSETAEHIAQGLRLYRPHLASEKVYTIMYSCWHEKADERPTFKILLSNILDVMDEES

molecular target: BTK (Homo sapiens (Human), UniProt Q06187); experiment: Time Dependent Human Whole Blood IC50 assay; assay type: cell-based; conditions: read-out: Time Dependent Human Whole Blood BTK Enzyme Assay IC50
Experimental: Compounds described by embodiments of the present invention were assayed using a human whole blood assay. The data from the same is recorded in Table 2 within the column labeled: “Time Dependent Human Whole Blood BTK Enzyme Assay IC50”.

Compound	IC50 [nM]
C=CC(=O)N[C@H]1CC[C@H](Nc2ncnc(N)c2-c2ccc(Oc3ccccc3)cc2)C1 [A49, N-((1S,3S)-3-((6-amino-5-(4-phenoxyphenyl)pyrimidin-4-yl)amino)cyclopentyl)acrylamide]	> 1000
C=CC(=O)N1CCC(O)(CNc2ncnc(N)c2-c2ccc(Oc3ccccc3)cc2)CC1 [A37, 1-(4-(((6-amino-5-(4-phenoxyphenyl)pyrimidin-4-yl)amino)methyl)-4-hydroxypiperidin-1-yl)prop-2-en-1-one]	< 1000

molecular target: full-length human BTK (Homo sapiens (Human), UniProt Q06187); experiment: BTK IC50 enzyme assay (microfluidic off-chip mobility shift kinase assay); assay type: biochemical; conditions: incubated for 90 min. at 27 C; read-out: Time Dependent BTK Enzyme Assay IC50
Experimental: The following describes a microfluidic, off-chip mobility shift kinase assay used to measure inherent potency of compounds against BTK enzyme. Compounds described by embodiments of the present invention were assayed using this protocol and the data from the same is recorded in Table 2 within the column labeled: “Time Dependent BTK Enzyme Assay IC50”.
Stopped reactions were monitored at −2 PSI, −3000 V/−700 V in a LabChip 3000 plate reader from Caliper Life Sciences, a PerkinElmer Company (Hopkinton, Mass.), and the activity was measured by off-chip mobility shift assay measuring the charge/mass difference between substrate and product resulting from peptide phosphorylation. IC50 and efficacy were determined by plotting log [Inhibitor] vs. % Activity in GeneData Screener (Basel, Switzerland). […] I<1 uM and II>1 uM.

Compound	IC50 [nM]
Nc1ncnc(NCC2CCN(C(=O)CCl)CC2)c1-c1ccc(Oc2ccccc2)cc1 [A45, 1-(4-(((6-amino-5-(4-phenoxyphenyl)pyrimidin-4-yl)amino)methyl)piperidin-1-yl)-2-chloroethanone]	< 100
C=CC(=O)N[C@H]1CC[C@H](Nc2ncnc(N)c2-c2ccc(Oc3ccccc3)cc2)C1 [A49, N-((1S,3S)-3-((6-amino-5-(4-phenoxyphenyl)pyrimidin-4-yl)amino)cyclopentyl)acrylamide]	< 1000
C=CC(=O)N[C@H]1CCC[C@H](Nc2ncnc(N)c2-c2ccc(Oc3ccccc3)cc2)C1 [A176, N-((1S,3S)-3-((6-amino-5-(4-phenoxyphenyl)pyrimidin-4-yl)amino)cyclohexyl)acrylamide]	> 1000
C=CC(=O)N[C@@H]1CCC[C@@H](Nc2ncnc(N)c2-c2ccc(Oc3ccccc3)cc2)C1 [A175, N-((1R,3R)-3-((6-amino-5-(4-phenoxyphenyl)pyrimidin-4-yl)amino)cyclohexyl)acrylamide]	< 1000
C=CC(=O)N1CCC[C@@H](Nc2ncnc(N)c2-c2ccc(Oc3ccccc3)cc2)C1 [A247, (R)-1-(3-((6-amino-5-(4-phenoxyphenyl)pyrimidin-4-yl)amino)piperidin-1-yl)prop-2-en-1-one]	< 100
C=CC(=O)N1CCC(CNc2ncnc(N)c2-c2ccc(Oc3cccc(F)c3)cc2)CC1 [A34, 1-(4-(((6-amino-5-(4-(3-fluorophenoxy)phenyl)pyrimidin-4-yl)amino)methyl)piperidin-1-yl)prop-2-en-1-one]	< 100
C=CC(=O)N1CCC[C@H](Nc2ncnc(N)c2-c2ccc(Oc3ccccc3)cc2)C1 [A275, (S)-1-(3-((6-amino-5-(4-phenoxyphenyl)pyrimidin-4-yl)amino)piperidin-1-yl)prop-2-en-1-one]	< 100
C=CC(=O)N1CCCC(Nc2ncnc(N)c2-c2ccc(Oc3ccccc3)cc2)C1 (stereo not shown) [A253, 1-(3-((6-amino-5-(4-phenoxyphenyl)pyrimidin-4-yl)amino)piperidin-1-yl)prop-2-en-1-one]	< 100
C=CC(=O)N1CC2(CC(Nc3ncnc(N)c3-c3ccc(Oc4ccccc4)cc3)C2)C1 [A124, 1-(6-((6-amino-5-(4-phenoxyphenyl)pyrimidin-4-yl)amino)-2-azaspiro[3.3]heptan-2-yl)prop-2-en-1-one]	< 100
C=CC(=O)N[C@H]1CCC[C@@H](Nc2ncnc(N)c2-c2ccc(Oc3ccccc3)cc2)C1 [A173, N-((1S,3R)-3-((6-amino-5-(4-phenoxyphenyl)pyrimidin-4-yl)amino)cyclohexyl)acrylamide]	< 100
C=CS(=O)(=O)N1CCC(CNc2ncnc(N)c2-c2ccc(Oc3ccccc3)cc2)CC1 [A10, 5-(4-phenoxyphenyl)-N4-((1-(vinylsulfonyl)piperidin-4-yl)methyl)pyrimidine-4,6-diamine]	< 100
C=CC(=O)N[C@@H]1CC[C@H](Nc2ncnc(N)c2-c2ccc(Oc3ccccc3)cc2)C1 (relative stereo) [A181, N-(cis-3-((6-amino-5-(4-phenoxyphenyl)pyrimidin-4-yl)amino)cyclopentyl)acrylamide]	< 100
C=CC(=O)N1CC[C@H](Nc2ncnc(N)c2-c2ccc(Oc3ccccc3)cc2)C1 [A148, (S)-1-(3-((6-amino-5-(4-phenoxyphenyl)pyrimidin-4-yl)amino)pyrrolidin-1-yl)prop-2-en-1-one]	< 1000
C=CC(=O)N[C@H]1CC[C@H](Nc2ncnc(N)c2-c2ccc(Oc3ccccc3)cc2)CC1 [A276, N-((1 r,4r)-4-((6-amino-5-(4-phenoxyphenyl)pyrimidin-4-yl)amino)cyclohexyl)acrylamide]	< 100
C=CC(=O)N[C@@H]1CCC[C@H](Nc2ncnc(N)c2-c2ccc(Oc3ccccc3)cc2)C1 (relative stereo) [A174, N-((1R,3S)-3-((6-amino-5-(4-phenoxyphenyl)pyrimidin-4-yl)amino)cyclohexyl)acrylamide]	> 1000
C=CC(=O)N1CC[C@@H](Nc2ncnc(N)c2-c2ccc(Oc3ccccc3)cc2)C1 [A1, (R)-1-(3-((6-amino-5-(4-phenoxyphenyl)pyrimidin-4-yl)amino)pyrrolidin-1-yl)prop-2-en-1-one]	< 100
C=CC(=O)N[C@H]1CC[C@@H](Nc2ncnc(N)c2-c2ccc(Oc3ccccc3)cc2)CC1 [A266, N-((1s,4s)-4-((6-amino-5-(4-phenoxyphenyl)pyrimidin-4-yl)amino)cyclohexyl)acrylamide]	< 100
C=CC(=O)N[C@@H]1CCC[C@H](Nc2ncnc(N)c2-c2ccc(Oc3ccccc3)cc2)C1 (relative stereo) [A51, N-(cis-3-((6-amino-5-(4-phenoxyphenyl)pyrimidin-4-yl)amino)cyclohexyl)acrylamide]	< 100
C=CC(=O)N1CCC(O)(CNc2ncnc(N)c2-c2ccc(Oc3ccccc3)cc2)CC1 [A37, 1-(4-(((6-amino-5-(4-phenoxyphenyl)pyrimidin-4-yl)amino)methyl)-4-hydroxypiperidin-1-yl)prop-2-en-1-one]	< 100
C=CC(=O)Nc1cccc(Oc2ncncc2-c2ccc(Oc3ccccc3)cc2)c1 [A255, N-(3-((5-(4-phenoxyphenyl)pyrimidin-4-yl)oxy)phenyl)acrylamide]	< 100
